Screening data: PubChem, National Center for Advancing Translational Sciences (NCATS)
Only some compounds are listed: those with a hit (about 13% of all), similar ones and a draw of the others.
G9a block = blocks human histone lysine methyltransferase G9a. AID 504332. Potency, µM (titrated, usually from 102 µM), for inactives: at the highest dose activity, negative = inhibition, usual class: inhibitors. G9a H3K9 monomethylation, AlphaScreen, 2 h. Q96KQ7. 350,000 compounds, 8.8% hits; also: potency is read from the fitted curve at half-maximal effect; % is scaled to controls: 0 for no effect and ±100 for the full control effect; nearly all actives have a fitted effect of over 75% in size
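Using a bead-based AlphaScreen, monomethylated H3K9 product from 2 h room-temperature reactions (G9a 20 nM, peptide 500 nM, SAM 20 uM) was detected with 0.5 ug/mL rabbit anti-H3K9me1 antibody.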
Sfp inh = inhibitors of Bacillus subtilis Sfp phosphopantetheinyl transferase. Q9F4F7. Biochemical Sfp PPTase activity, qHTS. Potency, µM, inactives show max response, negative = inhibition, most hits filed as inhibitors. 3.5% of 310,000 active. AID 1490; active = well fitted inhibition curve with a large enough effect; inconclusive = small, poorly fitted or top-dose-only effect, or another doubt; inactive = no such curve, though single readings can be large or run the other way;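 also: the enzyme is Sfp with the accession as filed and its product quenches rhodamine fluorescence; potency is read from the fitted curve at half-maximal effect; 0% = enzyme reaction without inhibitor and -100% = no enzyme wells; top concentration of the series not given in the record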
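With Hepes-Na pH 7.6 buffer containing 10 mM MgCl2, Sfp (15 nM) modified BHQ-2-YbbR (12.5 uM) using rhodamine-CoA (5 uM). Two reads 30 minutes apart at 525/598 nm yielded each well's rate.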
miR-21 reporter = miR-21 reporter, rising signal. 340,000 tested, under 10 active. Potency, µM (highest dose often 38.3 µM), for the others: at the highest dose reporter change, positive = more light. HeLa miR-21 FLuc reporter, luciferase, 48 h. AID 2288; active = well fitted rising curve with a large enough effect; inconclusive = small, poorly fitted or top-dose-only effect; inactive = no such curve, though single readings can be large or run the other way;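 further: % of control where 0% means no effect; miR-21 action dims this reporter so a rising signal means less miR-21 action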
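HeLa cells stably expressing CMV-driven firefly luciferase with a downstream miR-21 binding sequence, endogenously expressing miR-21, were treated with titrations (up to about 40uM final) for 48 hours at 37 degree Celsius. Luciferase luminescence was read after lysis.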
KDM4E inh = inhibitors of human JMJD2E histone demethylase | JMJD2E catalytic domain, FDH-coupled NADH fluorescence (FDH is formaldehyde dehydrogenase) | Potency, µM (highest dose often 57.1 µM), for inactives: top-dose activity change, negative = inhibition, usual class: inhibitors | 230,000 compounds, 1.6% hits | AID 2147; active = well fitted inhibition curve with a large enough effect, not every such curve was filed as active; inconclusive = small, poorly fitted or top-dose-only effect, or another doubt; inactive = no such curve, though single readings can be large or run the other way;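 also: potency is read from the fitted curve at half-maximal effect; 0% = wells with enzyme and -100% = buffer wells without enzyme; nearly all actives have a fitted effect of over 50% in size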
Lamin A splicing = LMNA splicing modulation. AID 1487. Potency, µM (top dose mostly 46.1 µM), for the others: at the top dose ratio change, negative = inhibition, hits mostly inhibitors. 200,000 compounds, 0.01% hits. HeLa LMNA splicing GFP/RFP minigene ratio, 48 h; active = well fitted inhibition curve with a large enough effect in the signal ratio, with a control signal flat, not every such curve was filed as active; inconclusive = small, poorly fitted or top-dose-only effect, or effect the other way, or a change in a side signal; the % refers to the signal ratio; also: potency is read from the fitted curve at half-maximal effect; % is scaled to controls: 0 for no effect and ±100 for the full control effect
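S3 HeLa stable clones carrying a lamin A-EGFP splicing minigene plus DsRed2 were seeded at 600 cells/well in Opti-MEM with 2% FBS, pin-dosed and incubated 48 h at 37°C. Acumen cytometry (488 nm) gave the GFP/RFP total-intensity ratio.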
ALDH1A1 block = blocks purified human ALDH1A1 activity. Potency, µM (highest dose often 75.3 µM), inactives show at the top dose activity, negative = inhibition, hits mostly inhibitors. Purified ALDH1A1, NADH fluorescence, propionaldehyde substrate. 220,000 compounds, 7.3% hits; active = well fitted inhibition curve with a large enough effect, not every such curve was filed as active; inconclusive = small, poorly fitted or top-dose-only effect, or another doubt; inactive = no such curve, though single readings can be large or run the other way;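 also: potency is read from the fitted curve at half-maximal effect; plate controls were no enzyme wells and a reference inhibitor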
Numbers without * were called inactive; ? = inconclusive; . = no result; [ ] = dose if it differs, or a comment. Unless noted, calls follow the shape of the dose curve; as a rule, active = well fitted curve in the direction sought with a large enough effect; inconclusive = small, poorly fitted or top-dose-only effect, or another doubt; inactive = no such curve, though single readings can be large; an effect the other way counts as inactive or inconclusive.

Second line of a record – G9a block | Sfp inh | miR-21 reporter | KDM4E inh | Lamin A splicing | ALDH1A1 block
- O=S(=O)(NCC(c1ccc2c(c1)OCO2)N1CCOCC1)c1ccccc1 (stereo unspecified)
  -2% | . | . | . | . | .
- O=C(Cc1ccc(NC(=O)N2CCSc3ncccc32)cc1)NCCc1ccccc1
  -33%[59 µM] | . | 1% | . | . | .
- CC1(c2cnc(Nc3ccccc3)s2)CCC(=O)O1 (stereo unspecified)
  9%[59 µM] | 0% | -22% | 0% | 8% | 18µM*
- O=C1CCc2c(ccc3ccccc23)O1
  31%[59 µM] | 20% | . | . | . | -1%
- CN1COc2ccc3ccccc3c2C1
  2.2µM* | 11% | 2% | 14µM* | . | -5%
- Cc1ccc(OCCC(=O)OCC(=O)NC2CCS(=O)(=O)C2)cc1 (stereo unspecified)
  8% | . | . | . | . | .
- O=C(Cc1ccccc1)NC1CCS(=O)(=O)C1 (stereo unspecified)
  -12%[59 µM] | 12% | -1% | 0% | -5% | 6%
- CN(C(=O)c1ccccc1)c1ccc(OCC(=O)NC2CCS(=O)(=O)C2)cc1 (stereo unspecified)
  -18% | 4% | 0% | 3% | -9% | 14µM*
- O=C(COC(=O)CCc1ccccc1)NC1CCS(=O)(=O)C1 (stereo unspecified)
  50µM* | . | . | . | . | .
- Cc1ccccc1Cc1c(C)nc2c(-c3ccccc3)c(C)[nH]n2c1=O
  11%[59 µM] | . | ? | . | . | .

In a second layout: entries from further up
smiles,G9a block,Sfp inh,miR-21 reporter,KDM4E inh,Lamin A splicing,ALDH1A1 block
O=C(Cc1ccccc1)NC1CCS(=O)(=O)C1 (stereo unspecified),-12%[59 µM],12%,-1%,0%,-5%,6%
CC1(c2cnc(Nc3ccccc3)s2)CCC(=O)O1 (stereo unspecified),9%[59 µM],0%,-22%,0%,8%,18µM*
O=S(=O)(NCC(c1ccc2c(c1)OCO2)N1CCOCC1)c1ccccc1 (stereo unspecified),-2%,.,.,.,.,.
CN1COc2ccc3ccccc3c2C1,2.2µM*,11%,2%,14µM*,.,-5%

Additional structures follow:
Second line of a record – G9a block | Sfp inh | miR-21 reporter | KDM4E inh | Lamin A splicing | ALDH1A1 block
- Cc1ccc(OCCCCNC2CCCC(C)C2C)c(C)c1 (stereo unspecified)
  13µM* | ? | 23% | ? | 15%[46 µM] | -5%
- Cc1ccc(C)c(OCCCCN2CCCCC2)c1
  25µM* | -7% | -2% | . | . | .
- Cc1ccc(OCCCN2CCCC2)c(C)c1
  10µM* | ? | -5% | ? | 17% | ?
- Cc1ccc(C)c(OCCCC(=O)NC2CCCCC2)c1
  -1% | 24% | -8% | . | . | .
- Cc1ccc(OCCCCN2CCCCC2)c(C)c1
  -11% | 1% | 2% | . | . | .
- COC(=O)c1c(NC(=O)C2CC2)sc(C(=O)Nc2ccccc2)c1C
  3% | 3% | -41% | 14% | -5%[46 µM] | 4%
- Cc1ccc(CN(C(=O)c2ccc(C(C)(C)C)cc2)c2ccccn2)o1
  3%[59 µM] | . | -37% | . | ? | .
- Cc1nn(C(C)C(=O)NCCCN2CCCC2)c(=O)c2nn(-c3ccccc3)c(C)c12 (stereo unspecified)
  ? | 11% | -1% | . | . | .
- O=C(COC(=O)COc1ccc2c(c1)CCC2)Nc1ccccc1
  -3%[59 µM] | . | . | . | . | .
- CCC(C)(C)NC(=O)c1ccc2c(c1)N(CC(=O)N1CCCC1)C(=O)C(C)(C)O2
  -2%[0.501 µM] | 26% | 0% | . | . | .
- CC(C)(C)NC(=O)c1ccc2c(c1)N(CC(=O)N1CCN(c3ccccc3F)CC1)C(=O)C(C)(C)O2
  -37% | -9% | 0% | 6% | 0% | 14µM*
- FC1(F)C(F)(F)C(F)(F)C2(F)C(F)(F)C(F)(F)C(F)(F)C(F)(F)C2(F)C1(F)F (stereo unspecified)
  3%[12.7 µM] | 11% | . | . | . | .
- O=C(c1ccco1)N(CCC(c1ccccc1)c1ccco1)Cc1ccccc1 (stereo unspecified)
  ? | 50µM* | -1% | -8% | -8% | 8.9µM*
- COc1ccc(CN(CCC(c2ccccc2)c2ccco2)C(=O)c2ccco2)cc1 (stereo unspecified)
  ? | ? | -2% | -11% | ? | 7.9µM*
- N#Cc1ccc(C(=O)Nc2ccc(Cl)c(-c3nc4cc(Cl)ccc4o3)c2)c(F)c1
  3%[59 µM] | . | 24% | . | . | .
- O=C(NC(=S)Nc1ccc(Cl)cc1)c1ccccc1
  -38% | -11% | -65% | 0% | . | 15µM*
- CCC(=O)NC(=S)Nc1ccc(NC(=S)NC(=O)c2ccccc2)cc1
  -7%[12.7 µM] | -29% | 29% | 3% | . | 25µM*
- COC(=O)CC(NC(=S)NC(=O)c1ccccc1)c1ccc(Br)cc1 (stereo unspecified)
  40µM* | 3% | -3% | . | . | .
- O=C(NC(=S)Nc1ccc2cn[nH]c2c1)c1ccccc1
  45µM* | ? | -22% | 12% | 10%[46 µM] | ?
- CC(C)n1cnnc1SCC(=O)NC(=O)c1ccccc1
  -8%[2.33 µM] | . | . | . | . | .
- O=C(NC(=S)Nc1ccc(NC(=O)c2ccccc2)cc1)c1ccc(F)cc1
  ? | 14% | -13% | . | . | .
- O=C(NC(=S)Nc1ccc(Oc2ccc(Cl)cc2)cc1)c1ccccc1
  1%[12.7 µM] | 10% | 12% | -1% | -9% | 8.9µM*
- Clc1cccc(Cl)c1CNc1ccc(N2CCCC2)cc1
  1.8µM* | ? | -7% | 13µM* | -1%[46 µM] | 16µM*
- Cc1cc(C)c(Nc2nn3c(=O)c4cc5c(cc4nc3s2)OCO5)c(C)c1
  2.2µM* | . | -13% | . | . | .
- O=C(Nc1ccccc1)C(=O)Nc1cccnc1
  . | 8% | -20% | -7% | . | 7%
- O=C(Nc1cccnc1)/C(N=Nc1cccnc1)=C(\O)c1ccccc1
  2% | 3% | -17% | 1% | -11% | 1.4µM*
- Nc1nc(=O)n(C2OC(CO)C(O)C2O)cc1Cl (stereo unspecified)
  . | -29% | . | -8% | ? | 5%
- CCN1CCN(Cc2ccc(NC(=O)c3ccc(C)c(NC(=O)c4ccc5n[nH]nc5c4)c3)cc2C(F)(F)F)CC1
  -14%[12.7 µM] | -1% | 4% | 11% | . | .
- CCN1CCN(Cc2ccc(NC(=O)c3cc(NC(=O)c4cnn(-c5ccccc5)c4N)cc(OC)c3)cc2C(F)(F)F)CC1
  ? | -16% | -7% | 8% | . | .
- CCN1CCN(Cc2ccc(NC(=O)c3cc(NC(=O)C(=O)c4c[nH]c5ccccc45)cc(OC)c3)cc2C(F)(F)F)CC1
  1%[12.7 µM] | 50µM* | ? | -25% | . | .
- CCN1CCN(Cc2ccc(NC(=O)c3cc(NC(=O)c4cc(C)on4)cc(OC)c3)cc2C(F)(F)F)CC1
  45µM* | -5% | 12% | . | . | .
- CCN1CCN(Cc2ccc(NC(=O)c3ccc(C)c(NC(=O)C(=O)c4c[nH]c5ccccc45)c3)cc2C(F)(F)F)CC1
  50µM* | 50µM* | ? | -28% | . | .
- O=C(C1COc2ccccc2O1)N(Cc1cccnc1)c1nc2ccc(F)cc2s1 (stereo unspecified)
  5%[59 µM] | . | -35% | . | 1%[46 µM] | .
- Cc1cc(C)c2[nH]c(=O)c(CN(Cc3ccco3)C(=O)c3cccs3)cc2c1
  0%[59 µM] | ? | 1% | ? | 9% | 18µM*
- COc1cccc(C(=O)N(Cc2ccc(N(C)C)cc2)Cc2ccco2)c1
  13µM* | . | 0% | . | . | .
- Cc1ccc(N(Cc2ccco2)C(=O)c2cccc(S(=O)(=O)N(C)C)c2)cc1
  -22%[12.7 µM] | 19% | 1% | -4% | 24% | 25µM*
- CN(C)c1ccc(CN(Cc2ccco2)C(=O)COc2ccc(F)cc2)cc1
  16µM* | . | 23% | . | . | .
